Target: T1, Toll-like receptor 7 (Mus musculus) (UniProt P58681)
T1 sequence (whole entry): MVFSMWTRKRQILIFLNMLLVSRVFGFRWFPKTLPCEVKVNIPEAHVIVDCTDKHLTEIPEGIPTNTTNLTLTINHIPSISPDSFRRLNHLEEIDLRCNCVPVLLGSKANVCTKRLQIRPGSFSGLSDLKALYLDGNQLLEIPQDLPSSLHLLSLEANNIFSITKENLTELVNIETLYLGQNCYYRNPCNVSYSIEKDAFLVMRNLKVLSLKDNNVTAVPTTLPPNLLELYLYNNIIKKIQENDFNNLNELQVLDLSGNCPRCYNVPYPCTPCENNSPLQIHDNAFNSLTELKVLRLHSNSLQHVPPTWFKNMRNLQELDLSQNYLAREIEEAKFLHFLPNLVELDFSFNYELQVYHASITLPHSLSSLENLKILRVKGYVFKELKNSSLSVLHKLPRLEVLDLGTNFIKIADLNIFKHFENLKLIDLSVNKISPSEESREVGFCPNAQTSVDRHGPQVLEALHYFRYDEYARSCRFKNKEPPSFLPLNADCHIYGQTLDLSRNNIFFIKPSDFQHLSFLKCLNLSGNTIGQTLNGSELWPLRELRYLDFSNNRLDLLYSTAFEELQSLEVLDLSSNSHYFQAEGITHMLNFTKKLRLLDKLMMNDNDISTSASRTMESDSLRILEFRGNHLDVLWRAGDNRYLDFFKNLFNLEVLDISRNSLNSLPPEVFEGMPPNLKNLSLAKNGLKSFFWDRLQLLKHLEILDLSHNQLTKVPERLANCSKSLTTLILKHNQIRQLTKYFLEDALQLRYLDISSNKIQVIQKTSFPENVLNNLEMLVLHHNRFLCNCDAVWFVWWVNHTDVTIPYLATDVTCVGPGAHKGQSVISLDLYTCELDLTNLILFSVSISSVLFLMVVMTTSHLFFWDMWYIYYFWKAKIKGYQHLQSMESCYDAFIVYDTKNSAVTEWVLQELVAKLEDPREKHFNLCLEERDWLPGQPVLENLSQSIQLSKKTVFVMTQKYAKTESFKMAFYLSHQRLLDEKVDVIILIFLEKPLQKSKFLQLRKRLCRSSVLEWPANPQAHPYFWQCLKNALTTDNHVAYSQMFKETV
Assay: Agonist activity at mouse TLR7 expressed in HEK293 cells co-expressing NF-kappaB/AP-1 inducible SEAP reporter gene at 33 uM measured for 24 hrs by colorimetric analysis relative to control
Format: cell-based

CCCCNc1nc(N)nc2ncn(Cc3ccc(CN(CC)CC)cc3OC)c12
Emax: 0.711%

Reference: ChEMBL document CHEMBL5512680, “Design, Synthesis, and Biological Evaluation of New 2,6,7-Substituted Purine Derivatives as Toll-like Receptor 7 Agonists for Intranasal Vaccine Adjuvants” (J Med Chem, 2024)
